# Assay results: patent publication US6867305B2, “Synthesis of epothilones, intermediates thereto and analogues thereof” (Sloan-Kettering Institute for Cancer Research, priority 1996, dated 2005)
# Tests used:
# [1] = system: MCF-7/Adr; experiment: Tumor cell growth inhibition in vitro; assay type: cell-based, human; details: MCF-7/Adr vs MCF-7
# Protocol: The cells were cultured at an initial density of 2-5×10^4 cells per ml. […] For solid tumor cells growing in a monolayer (such as MCF-7/Adr), cytotoxicitiy of the drug was determined in 96-well microtiter plates by using the sulforhodamine B method as described by Skehan et al (23) for measuring the cellular protein content. For cells that were grown in suspension (such as CCRF-CEM and its sublines), cytotoxicitiy was measured by using the 2,-3-bis(2-methoxy-4-nitro-5-sulfophenyl)-5carboxanilide)-2H terazodium hydroxide (XTT)-microculture tetrazonium method (24) in duplicate in 96-well microtiter plates. For both methods, the absorbance of each well was measured with a microplate reader (EL-340, Bio-Tek, Burlington, Vt.). Each run entailed six or seven concentrations of the tested drugs. Dose-effect relationship data were analyzed with the median-effect plot (25) by using a previously described computer program (26).
# [2] = system: Human lung carcinoma A549 cells; details: A549 cells exposed to IC50-IC90: VBL 14.3 months, paclitaxel and adriamycin 21.3 months, dEpoB 21.4 months
# Description: Repeated exposure of human lung carcinoma A549 cells to sublethal concentrations of antitumor agents may lead to the development of drug resistance.
# Every several weeks, cells were harvested for the dose-effect analysis to determine their folds of resistance (using SRB protein staining assay) based on comparing the IC50 value with the IC50 value of the untreated parent cells. Trypsinized/washed cells were used for propagating the cell lineage.
# [3] = system: MX-1 mammary carcinoma xenograft; details: MX-1, i/p., ref 19 (FIG. 2)
smiles,measurement,setting,value
"COc1cccc2c1C(=O)c1c(O)c3c(c(O)c1C2=O)C[C@@](O)(C(=O)CO)C[C@@H]3O[C@H]1C[C@H](N)[C@H](O)[C@H](C)O1 [Adriamycin, doxorubicin, reference compound]",cross-resistance (fold of resistance vs parent cell line),[1],3.5 x
same,fold resistance developed to the drug after repeated exposure,[2],16.3 fold
same,Therapeutic Effect Rank Order,[3],dEpoB>Adriamycin>Taxol
